Assay results taken from ChEMBL document CHEMBL1127734, “Selective ligands for rat A3 adenosine receptors: structure-activity relationships of 1,3-dialkylxanthine 7-riboside derivatives” (J Med Chem, 1994).

Chains of the proteins cited; added tags and fusions are not shown.
UniProt P30543, whole entry: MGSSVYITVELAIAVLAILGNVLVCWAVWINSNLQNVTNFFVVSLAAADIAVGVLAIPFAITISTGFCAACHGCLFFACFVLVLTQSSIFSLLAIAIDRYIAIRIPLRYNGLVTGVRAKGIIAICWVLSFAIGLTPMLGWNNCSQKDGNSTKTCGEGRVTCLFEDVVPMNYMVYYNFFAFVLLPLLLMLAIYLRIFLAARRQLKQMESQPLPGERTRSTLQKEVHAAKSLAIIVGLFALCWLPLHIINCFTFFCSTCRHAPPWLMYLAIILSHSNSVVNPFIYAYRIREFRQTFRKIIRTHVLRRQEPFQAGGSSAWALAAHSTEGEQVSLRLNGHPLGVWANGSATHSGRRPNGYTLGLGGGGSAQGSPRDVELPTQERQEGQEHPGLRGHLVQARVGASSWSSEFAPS
UniProt P25099, whole entry: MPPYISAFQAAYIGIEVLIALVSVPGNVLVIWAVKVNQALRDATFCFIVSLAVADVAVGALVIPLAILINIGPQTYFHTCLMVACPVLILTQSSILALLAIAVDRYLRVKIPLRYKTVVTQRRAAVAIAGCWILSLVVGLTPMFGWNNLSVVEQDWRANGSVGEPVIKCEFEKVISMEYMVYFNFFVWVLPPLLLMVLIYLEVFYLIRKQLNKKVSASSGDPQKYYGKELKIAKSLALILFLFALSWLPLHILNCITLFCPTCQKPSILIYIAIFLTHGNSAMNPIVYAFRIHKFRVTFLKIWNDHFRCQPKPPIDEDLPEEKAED
UniProt P28647, whole entry: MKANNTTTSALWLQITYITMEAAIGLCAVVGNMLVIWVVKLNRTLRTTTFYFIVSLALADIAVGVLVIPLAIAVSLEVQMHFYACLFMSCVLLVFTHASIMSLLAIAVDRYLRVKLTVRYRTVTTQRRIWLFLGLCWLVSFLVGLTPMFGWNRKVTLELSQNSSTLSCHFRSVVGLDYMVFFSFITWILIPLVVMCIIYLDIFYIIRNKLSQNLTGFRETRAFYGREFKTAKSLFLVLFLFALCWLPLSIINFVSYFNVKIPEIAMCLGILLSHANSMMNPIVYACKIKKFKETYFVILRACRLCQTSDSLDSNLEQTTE

Columns and labels:
Assay type in all cases: cell membranes
[1] = target: Adenosine receptor A2a (Rattus norvegicus) (UniProt P30543); assay: Displacement of specific [3H]- CGS-21680 in rat striatal membranes A2a receptor at 10e-4 M concentration; details: Membrane
Procedure, shortened: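 Rat striatal membranes; [3H]CGS 21680 binding at A2a receptors. Adenosine deaminase (3 units/mL) present during membrane preparation, which includes a 30 °C, 30 min incubation, and during radioligand incubation.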

[2] = target: Adenosine receptor A1 (Rattus norvegicus, UniProt P25099); assay: Tested for the displacement of specific [3H]PIA in rat brain membranes of A1 receptor
[3] = target: Adenosine receptor A3 (Rattus norvegicus, UniProt P28647); assay: Displacement of specific [125]AB-MECA binding in membranes of CHO cells stably transfected with the rat A3-cDNA
Procedure, shortened: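 CHO cells stably expressing rat A3 receptor, grown in F-12 with 10% FBS at 37 °C, 5% CO2; membranes incubated with [125I]AB-MECA (0.3 nM final) in 50 mM Tris/10 mM MgCl2/1 mM EDTA pH 8.26, duplicate, 1 h at 37 °C, then filtered. Inhibitors diluted from DMSO (≤1% final). Nonspecific binding with 40 μM R-PIA.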

## CCCCn1c(=O)c2c(ncn2C2O[C@H](C(=O)NC)[C@@H](O)[C@H]2O)n(CCCC)c1=O (stereo partly drawn)
[1]
  inhibition: 19%
[2]
  Ki: 37.3 µM
[3]
  Ki: 229 nM
